Columns and labels:
HL-60 = experiment: Cell proliferation assay (ATPlite 1Step), single agents and combination with Compound A, curve-shift and CI; 72 h culture, 120 h for EPZ-6438, JQ1, MLN-4924, MLN-7243, MPI-0479605, NMS-P715
NCI-H661 = experiment: as above
[1] = blending ratio (Compound A : combined compound) 1:4, Fa 90
[2] = Compound A : combined compound 1:1, Fa 90, 120 h culture
[3] = Compound A : combined compound 1:4, Fa 75, 120 h culture
[4] = Compound A : combined compound 1:4, Fa 90, 120 h culture
[5] = blending ratio (Compound A : combined compound) 1:1, Fa 50
[6] = blending ratio (Compound A : combined compound) 4:1, Fa 50
[7] = NCI-H661, Compound A + combined compound at fixed concentration 3.2 µM, Fa 75
[8] = Compound A + combined compound at fixed concentration 1 µM, Fa 50
[9] = NCI-H661, Compound A + combined compound at fixed concentration 1 µM, Fa 50
[10] = NCI-H661, Compound A + combined compound at fixed concentration 3.2 µM, Fa 50
[11] = blending ratio (Compound A : combined compound) 1:1, Fa 75
[12] = blending ratio (Compound A : combined compound) 1:4, Fa 50
[13] = blending ratio (Compound A : combined compound) 4:1, Fa 75
[14] = NCI-H661, blending ratio (Compound A : combined compound) 1:1, Fa 50
[15] = NCI-H661, blending ratio (Compound A : combined compound) 1:1, Fa 75
[16] = NCI-H661, blending ratio (Compound A : combined compound) 4:1, Fa 50
[17] = NCI-H661, blending ratio (Compound A : combined compound) 4:1, Fa 75
[18] = Compound A + combined compound at fixed concentration 3.2 µM, Fa 50
[19] = blending ratio (Compound A : combined compound) 4:1, Fa 90
[20] = Compound A : combined compound 1:1, Fa 50, 72 h culture
[21] = Compound A : combined compound 1:4, Fa 50, 72 h culture
[22] = Compound A : combined compound 4:1, Fa 50, 72 h culture
[23] = Compound A : combined compound 4:1, Fa 75, 120 h culture
[24] = Compound A : combined compound 1:1, Fa 75, 72 h culture
[25] = Compound A : combined compound 4:1, Fa 75, 72 h culture
[26] = blending ratio (Compound A : combined compound) 1:1, Fa 90
[27] = NCI-H661, blending ratio (Compound A : combined compound) 1:4, Fa 50
[28] = NCI-H661, blending ratio (Compound A : combined compound) 1:4, Fa 75
[29] = NCI-H661, blending ratio (Compound A : combined compound) 1:4, Fa 90

SMILES: Cc1sc2c(c1C)C(c1ccc(Cl)cc1)=N[C@@H](CC(=O)OC(C)(C)C)c1nnc(C)n1-2
- CI (HL-60; [1]): 0.86
- CI (NCI-H661; Compound A : combined compound 1:1, Fa 75, 120 h culture): 0.44
- CI (NCI-H661; [2]): 0.43
- CI (NCI-H661; [3]): 0.35
- CI (NCI-H661; [4]): 0.58
- CI (NCI-H661; Compound A : combined compound 4:1, Fa 50, 120 h culture): 0.78

SMILES: CC1=C(/C=C/C(C)=C/C=C/C(C)=C/C(=O)O)C(C)(C)CCC1
- CI (HL-60; [5]): 0.79
- CI (HL-60; [6]): 0.80

SMILES: O=C(c1cc(Cc2n[nH]c(=O)c3ccccc23)ccc1F)N1CCN(C(=O)C2CC2)CC1
- CI (NCI-H661; [7]): 0.10

SMILES: C[C@@H]1CN(CC(=O)Nc2ccc3c(c2)Cc2cccc(-c4cc(=O)cc(N5CCOCC5)o4)c2S3)C[C@H](C)O1
- CI (HL-60; [8]): 0.84
- CI (HL-60; Compound A + combined compound at fixed concentration 1 µM, Fa 75): 0.82
- CI (HL-60; Compound A + combined compound at fixed concentration 1 µM, Fa 90): 0.82
- CI (NCI-H661; [9]): 0.81

SMILES: Cn1cc(-c2cnn3c(N)c(Br)c([C@@H]4CCCNC4)nc23)cn1
- CI (NCI-H661; [10]): 0.91

SMILES: CC[C@]1(O)C[C@@H]2CN(CCc3c([nH]c4ccccc34)[C@@](C(=O)OC)(c3cc4c(cc3OC)N(C)[C@H]3[C@@](O)(C(=O)OC)[C@H](OC(C)=O)[C@]5(CC)C=CCN6CC[C@]43[C@@H]65)C2)C1
- CI (HL-60; [5]): 1.00
- CI (HL-60; [11]): 0.95
- CI (HL-60; [12]): 0.95
- CI (HL-60; [6]): 1.03
- CI (HL-60; [13]): 1.01
- CI (NCI-H661; [14]): 1.01
- CI (NCI-H661; [15]): 0.54
- CI (NCI-H661; [16]): 0.90
- CI (NCI-H661; [17]): 0.56

SMILES: C[C@@H]1COCCN1c1cc(-c2ccnn2C)c2ccnc(-c3ccn[nH]3)c2n1
- CI (HL-60; [1]): 0.27
- CI (HL-60; [6]): 0.87

SMILES: Cc1cc(Nc2ncnc3ccc(NC4=NC(C)(C)CO4)cc23)ccc1Oc1ccn2ncnc2c1
- CI (HL-60; [18]): 1.03
- CI (HL-60; Compound A + combined compound at fixed concentration 3.2 µM, Fa 75): 0.81
- CI (HL-60; Compound A + combined compound at fixed concentration 3.2 µM, Fa 90): 0.60

SMILES: CC(C)NC[C@@H](C(=O)N1CCN(c2ncnc3c2[C@H](C)C[C@H]3O)CC1)c1ccc(Cl)cc1
- CI (HL-60; [13]): 0.86
- CI (HL-60; [19]): 0.96
- CI (NCI-H661; [20]): 0.56
- CI (NCI-H661; [21]): 0.58
- CI (NCI-H661; [22]): 0.78

SMILES: NS(=O)(=O)OC[C@H]1C[C@@H](Nc2ccnc3cc(-c4cccc(SC(F)(F)F)c4)nn23)[C@H](O)[C@@H]1O
- CI (NCI-H661; [23]): 0.90
- CI (NCI-H661; Compound A : combined compound 4:1, Fa 90, 120 h culture): 0.77

SMILES: NS(=O)(=O)OC[C@@H]1C[C@@H](n2ccc3c(N[C@H]4CCc5ccccc54)ncnc32)C[C@@H]1O
- CI (NCI-H661; [2]): 0.31
- CI (NCI-H661; [3]): 0.30
- CI (NCI-H661; [4]): 0.43
- CI (NCI-H661; [23]): 0.63

SMILES: O=C1c2c(O)ccc(O)c2C(=O)c2c(NCCNCCO)ccc(NCCNCCO)c21
- CI (HL-60; [13]): 0.93
- CI (HL-60; [19]): 1.04
- CI (NCI-H661; [20]): 0.79
- CI (NCI-H661; [24]): 0.69
- CI (NCI-H661; [21]): 0.41
- CI (NCI-H661; [22]): 0.79
- CI (NCI-H661; [25]): 0.54

SMILES: CO[C@@]12[C@H](COC(N)=O)C3=C(C(=O)C(C)=C(N)C3=O)N1C[C@@H]1N[C@@H]12
- CI (HL-60; [26]): 0.96
- CI (HL-60; [1]): 0.97
- CI (HL-60; [19]): 0.93
- CI (NCI-H661; Compound A : combined compound 1:1, Fa 90, 72 h culture): 0.36
- CI (NCI-H661; Compound A : combined compound 4:1, Fa 90, 72 h culture): 0.07

SMILES: CCc1cccc(CC)c1NC(=O)c1nn(C)c2c1CCc1cnc(Nc3ccc(C(=O)NC4CCN(C)CC4)cc3OC(F)(F)F)nc1-2
- CI (HL-60; [19]): 1.07
- CI (NCI-H661; [9]): 0.91
- CI (NCI-H661; NCI-H661, Compound A + combined compound at fixed concentration 1 µM, Fa 75): 0.93
- CI (NCI-H661; NCI-H661, Compound A + combined compound at fixed concentration 1 µM, Fa 90): 0.92

SMILES: Cc1ccc(NC(=O)c2ccc(CN3CCN(C)CC3)cc2)cc1Nc1nc(-c2cccnc2)cs1
- CI (HL-60; [18]): 0.90
- CI (NCI-H661; [10]): 0.90

SMILES: S=c1nc[nH]c2nc[nH]c12
- CI (HL-60; [26]): 0.90

SMILES: CC[C@]1(O)C[C@H]2CN(CCc3c([nH]c4ccccc34)[C@@](C(=O)OC)(c3cc4c(cc3OC)N(C=O)[C@H]3[C@@](O)(C(=O)OC)[C@H](OC(C)=O)[C@]5(CC)C=CCN6CC[C@]43[C@@H]65)C2)C1
- CI (HL-60; [11]): 0.75
- CI (NCI-H661; [27]): 0.89
- CI (NCI-H661; [28]): 0.25
- CI (NCI-H661; [17]): 0.56

SMILES: Cc1cc(Nc2ncc(Cl)c(Nc3ccccc3S(=O)(=O)C(C)C)n2)c(OC(C)C)cc1C1CCNCC1
- CI (HL-60; [26]): 0.75
- CI (NCI-H661; [15]): 0.56
- CI (NCI-H661; [27]): 0.56
- CI (NCI-H661; [29]): 0.10
- CI (NCI-H661; [16]): 0.79
- CI (NCI-H661; [17]): 0.50

SMILES: CC1(C)CCC(c2ccc(Cl)cc2)=C(CN2CCN(c3ccc(C(=O)NS(=O)(=O)c4ccc(N[C@H](CCN5CCOCC5)CSc5ccccc5)c(S(=O)(=O)C(F)(F)F)c4)cc3)CC2)C1
- CI (HL-60; [5]): 1.05
- CI (HL-60; [11]): 0.67
- CI (HL-60; [26]): 0.60
- CI (HL-60; [12]): 1.06
- CI (HL-60; [1]): 0.67
- CI (HL-60; [6]): 1.10
- CI (HL-60; [13]): 0.91
- CI (HL-60; [19]): 0.79
- CI (NCI-H661; [10]): 0.88
- CI (NCI-H661; [7]): 0.81

SMILES: N#CCNC(=O)c1ccc(-c2ccnc(Nc3ccc(N4CCOCC4)cc3)n2)cc1
- CI (NCI-H661; [9]): 0.93

SMILES: CCc1c2c(nc3ccc(O)cc13)-c1cc3c(c(=O)n1C2)COC(=O)[C@]3(O)CC
- CI (NCI-H661; [20]): 1.04
- CI (NCI-H661; [24]): 0.61
- CI (NCI-H661; [21]): 0.77
- CI (NCI-H661; [25]): 0.43

SMILES: CNCc1ccc(-c2cc(-c3nc(-c4ccc(S(=O)(=O)C(C)C)cc4)cnc3N)on2)cc1
- CI (HL-60; blending ratio (Compound A : combined compound) 1:4, Fa 75): 1.02

SMILES: CC[C@@]1(O)C(=O)OCc2c1cc1n(c2=O)Cc2cc3ccccc3nc2-1
- CI (NCI-H661; [29]): 0.10

SMILES: C[C@@H](Oc1cc(-c2cnn(C3CCNCC3)c2)cnc1N)c1c(Cl)ccc(F)c1Cl
- CI (NCI-H661; NCI-H661, blending ratio (Compound A : combined compound) 1:1, Fa 90): 0.54
- CI (NCI-H661; [17]): 0.54
- CI (NCI-H661; NCI-H661, blending ratio (Compound A : combined compound) 4:1, Fa 90): 0.19

SMILES: CN(Cc1cnc2nc(N)nc(N)c2n1)c1ccc(C(=O)N[C@@H](CCC(=O)O)C(=O)O)cc1
- CI (HL-60; [1]): 0.70
- CI (HL-60; [19]): 0.93

SMILES: C[C@@H]1COCCN1c1cc(C2([S@](C)(=N)=O)CC2)nc(-c2cc[nH]c3nccc2-3)n1
- CI (NCI-H661; [15]): 0.10
- CI (NCI-H661; [28]): 0.10
- CI (NCI-H661; [17]): 0.10

SMILES: COc1cccc2c1C(=O)c1c(O)c3c(c(O)c1C2=O)C[C@@](O)(C(=O)CO)C[C@@H]3O[C@H]1C[C@H](N)[C@@H](O)[C@H](C)O1
- CI (NCI-H661; [28]): 0.80

SMILES: COc1cccc2c1C(=O)c1c(O)c3c(c(O)c1C2=O)C[C@@](O)(C(=O)CO)C[C@@H]3O[C@H]1C[C@H](N)[C@H](O)[C@H](C)O1
- CI (NCI-H661; [28]): 0.90

SMILES: Nc1ccn([C@@H]2O[C@H](CO)[C@@H](O)C2(F)F)c(=O)n1
- CI (NCI-H661; [14]): 0.78
- CI (NCI-H661; [15]): 0.10
- CI (NCI-H661; [27]): 0.43
- CI (NCI-H661; [28]): 0.10
- CI (NCI-H661; [17]): 0.10

SMILES: CS(=O)(=O)CCNCc1ccc(-c2ccc3ncnc(Nc4ccc(OCc5cccc(F)c5)c(Cl)c4)c3c2)o1
- CI (HL-60; [8]): 0.97
